Legend:
[1] = target: Glucocorticoid Receptor (GR) (Homo sapiens, UniProt P04150); experiment: GR reporter gene assay (luciferase) in GRC9/HEK293 cells; conditions: for EC50: GRC9/HEK293 cells, luciferase activity after one day of incubation; for decrease of EC50 compared with fluticasone furoate: relative to fluticasone furoate EC50 = […]
[2] = system: OVA-induced mouse asthma model; experiment: OVA-induced mouse asthma model, differential cell counts in BALF; conditions: for Eosinophil count / Lymphocyte count / Macrophage count / Neutrophil count / Total cell count: mean
[3] = high-dose group, same dose 0.2 mg/kg
[4] = low-dose group (0.067 mg/kg), decreased to a certain extent

Sequences of proteins named here, by UniProt entry; tags and fusion partners are left off.
UniProt P04150, whole entry: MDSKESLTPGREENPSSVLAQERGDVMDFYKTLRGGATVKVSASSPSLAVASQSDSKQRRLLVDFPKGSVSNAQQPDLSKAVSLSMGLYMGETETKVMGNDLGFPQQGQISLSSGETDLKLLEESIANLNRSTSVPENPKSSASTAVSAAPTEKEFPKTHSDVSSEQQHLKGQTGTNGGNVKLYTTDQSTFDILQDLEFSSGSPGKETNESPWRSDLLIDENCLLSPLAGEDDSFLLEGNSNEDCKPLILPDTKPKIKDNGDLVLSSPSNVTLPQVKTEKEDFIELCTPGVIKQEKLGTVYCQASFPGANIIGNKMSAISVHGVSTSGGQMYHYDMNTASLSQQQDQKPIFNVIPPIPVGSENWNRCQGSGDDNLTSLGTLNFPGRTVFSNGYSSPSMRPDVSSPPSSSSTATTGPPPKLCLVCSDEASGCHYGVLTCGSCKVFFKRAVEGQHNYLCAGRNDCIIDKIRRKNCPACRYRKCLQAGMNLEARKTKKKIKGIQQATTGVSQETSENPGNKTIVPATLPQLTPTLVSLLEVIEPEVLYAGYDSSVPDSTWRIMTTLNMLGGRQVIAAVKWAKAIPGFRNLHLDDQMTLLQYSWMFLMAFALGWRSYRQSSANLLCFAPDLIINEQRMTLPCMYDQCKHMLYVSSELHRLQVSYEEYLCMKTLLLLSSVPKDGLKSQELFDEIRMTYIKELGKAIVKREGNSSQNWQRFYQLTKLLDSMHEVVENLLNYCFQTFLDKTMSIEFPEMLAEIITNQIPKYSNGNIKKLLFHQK

## CCC(=O)O[C@]1(C(=O)SCF)[C@H](C)C[C@H]2[C@@H]3C=C(F)C4=CC(=O)C=C[C@]4(C)[C@@]3(F)[C@@H](O)C[C@@]21C
[1]
  EC50: 0.0629 nM

## C[C@@H]1C[C@H]2[C@@H]3C=C(F)C4=CC(=O)CC[C@]4(C)[C@@]3(F)[C@@H](O)C[C@]2(C)[C@@]1(O)C(=O)OCF
[1]
  EC50: 5 nM

## C[C@@H]1C[C@H]2[C@@H]3C=C(F)C4=CC(=O)C=C[C@]4(C)[C@@]3(F)[C@@H](O)C[C@]2(C)[C@@]1(O)C(=O)OCF
[1]
  EC50: 0.886 nM

## C[C@@H]1C[C@H]2[C@@H]3C[C@H](F)C4=CC(=O)C=C[C@]4(C)[C@@]3(F)[C@@H](O)C[C@]2(C)[C@@]1(OC(=O)c1ccco1)C(=O)SCF
[2]; 0.2 mg/kg
  Eosinophil count: 89.55 ×10^4
  Lymphocyte count: 5.92 ×10^4
  Macrophage count: 193.09 ×10^4
  Neutrophil count: 2.54 ×10^4
  Total cell count: 291.09 ×10^4

## C[C@@H]1C[C@H]2[C@@H]3C=C(F)C4=CC(=O)C=C[C@]4(C)[C@@]3(F)[C@@H](O)C[C@]2(C)[C@@]1(OC(=O)c1ccco1)C(=O)SCF
[2]; 0.067 mg/kg
  Eosinophil count: 94.16 ×10^4
  Lymphocyte count: 4.81 ×10^4
  Macrophage count: 209.63 ×10^4
  Neutrophil count: 3.64 ×10^4
  Total cell count: 312.23 ×10^4
[2]; 0.2 mg/kg
  Eosinophil count: 25.34 ×10^4
  Lymphocyte count: 2.03 ×10^4
  Macrophage count: 173.04 ×10^4
  Neutrophil count: 3.12 ×10^4
  Total cell count: 203.53 ×10^4
[2]; high-dose group (0.2 mg/kg)
  eosinophil count compared with the model group: significantly decreased
  lymphocyte count compared with the model group: significantly decreased
  total cell count compared with the model group: significantly decreased
[2]; high-dose group (0.2 mg/kg), decreased to a certain extent
  neutrophil count compared with the model group: decreased
[2]; [3]
  eosinophil count compared with the fluticasone furoate group: significantly lower
  lymphocyte count compared with the fluticasone furoate group: significantly lower
  total cell count compared with the fluticasone furoate group: significantly lower
[2]; low-dose group (0.067 mg/kg)
  eosinophil count compared with the model group: significantly decreased
  total cell count compared with the model group: significantly decreased
[2]; [4]
  lymphocyte count compared with the model group: decreased
  neutrophil count compared with the model group: decreased
[1]
  EC50: 0.0141 nM
  decrease of EC50 compared with fluticasone furoate: 18%

## C[C@@H]1C[C@H]2[C@@H]3C=C(F)C4=CC(=O)C=C[C@]4(C)[C@@]3(F)[C@@H](O)C[C@]2(C)[C@@]1(OC(=O)c1ccco1)C(=O)OCF
[1]
  EC50: 0.0134 nM
  decrease of EC50 compared with fluticasone furoate: 22%

## CCC(=O)O[C@]1(C(=O)OCF)[C@H](C)C[C@H]2[C@@H]3C=C(F)C4=CC(=O)C=C[C@]4(C)[C@@]3(F)[C@@H](O)C[C@@]21C
[1]
  EC50: 0.0645 nM
